ChEMBL document CHEMBL1201862, “PubChem BioAssay data set” (2004)
Active and inactive are the calls of the source.

Amino acid sequences for entries named in this document (tags omitted). A change or cut given only in a name is not applied to a line headed by its entry.
UniProt P06241, whole entry: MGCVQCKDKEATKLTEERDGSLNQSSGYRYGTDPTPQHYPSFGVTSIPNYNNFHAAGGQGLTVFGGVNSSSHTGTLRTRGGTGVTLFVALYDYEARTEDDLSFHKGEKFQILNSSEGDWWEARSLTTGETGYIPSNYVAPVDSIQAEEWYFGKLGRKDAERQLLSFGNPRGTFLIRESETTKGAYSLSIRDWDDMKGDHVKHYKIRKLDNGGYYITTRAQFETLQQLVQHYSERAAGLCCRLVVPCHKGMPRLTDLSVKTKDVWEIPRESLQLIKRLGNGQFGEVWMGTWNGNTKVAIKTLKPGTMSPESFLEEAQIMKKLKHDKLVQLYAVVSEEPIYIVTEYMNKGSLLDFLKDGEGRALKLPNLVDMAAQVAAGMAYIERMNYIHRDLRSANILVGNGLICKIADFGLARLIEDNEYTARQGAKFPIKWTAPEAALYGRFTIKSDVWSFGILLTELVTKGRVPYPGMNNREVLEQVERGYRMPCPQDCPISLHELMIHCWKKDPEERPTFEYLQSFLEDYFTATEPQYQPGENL
UniProt P04629: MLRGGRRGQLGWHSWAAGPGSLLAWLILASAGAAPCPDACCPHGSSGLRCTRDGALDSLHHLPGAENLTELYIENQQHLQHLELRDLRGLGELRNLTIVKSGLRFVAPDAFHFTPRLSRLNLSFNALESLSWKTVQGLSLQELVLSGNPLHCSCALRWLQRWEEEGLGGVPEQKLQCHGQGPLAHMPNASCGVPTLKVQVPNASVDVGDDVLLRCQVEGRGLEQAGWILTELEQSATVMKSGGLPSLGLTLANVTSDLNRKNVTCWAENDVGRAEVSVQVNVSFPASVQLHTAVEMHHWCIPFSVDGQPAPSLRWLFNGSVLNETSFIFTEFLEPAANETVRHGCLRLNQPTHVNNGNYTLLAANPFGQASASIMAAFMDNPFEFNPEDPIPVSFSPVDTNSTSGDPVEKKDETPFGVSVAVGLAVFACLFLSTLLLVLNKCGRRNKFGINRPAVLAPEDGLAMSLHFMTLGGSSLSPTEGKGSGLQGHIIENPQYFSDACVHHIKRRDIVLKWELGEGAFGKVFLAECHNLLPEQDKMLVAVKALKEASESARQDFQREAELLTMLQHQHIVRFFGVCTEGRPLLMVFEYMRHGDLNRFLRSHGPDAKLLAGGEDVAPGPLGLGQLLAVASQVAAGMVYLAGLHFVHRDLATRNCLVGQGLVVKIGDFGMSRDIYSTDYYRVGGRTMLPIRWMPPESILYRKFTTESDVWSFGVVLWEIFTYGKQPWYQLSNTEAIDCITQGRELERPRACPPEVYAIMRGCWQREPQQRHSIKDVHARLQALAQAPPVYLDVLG
UniProt P08581: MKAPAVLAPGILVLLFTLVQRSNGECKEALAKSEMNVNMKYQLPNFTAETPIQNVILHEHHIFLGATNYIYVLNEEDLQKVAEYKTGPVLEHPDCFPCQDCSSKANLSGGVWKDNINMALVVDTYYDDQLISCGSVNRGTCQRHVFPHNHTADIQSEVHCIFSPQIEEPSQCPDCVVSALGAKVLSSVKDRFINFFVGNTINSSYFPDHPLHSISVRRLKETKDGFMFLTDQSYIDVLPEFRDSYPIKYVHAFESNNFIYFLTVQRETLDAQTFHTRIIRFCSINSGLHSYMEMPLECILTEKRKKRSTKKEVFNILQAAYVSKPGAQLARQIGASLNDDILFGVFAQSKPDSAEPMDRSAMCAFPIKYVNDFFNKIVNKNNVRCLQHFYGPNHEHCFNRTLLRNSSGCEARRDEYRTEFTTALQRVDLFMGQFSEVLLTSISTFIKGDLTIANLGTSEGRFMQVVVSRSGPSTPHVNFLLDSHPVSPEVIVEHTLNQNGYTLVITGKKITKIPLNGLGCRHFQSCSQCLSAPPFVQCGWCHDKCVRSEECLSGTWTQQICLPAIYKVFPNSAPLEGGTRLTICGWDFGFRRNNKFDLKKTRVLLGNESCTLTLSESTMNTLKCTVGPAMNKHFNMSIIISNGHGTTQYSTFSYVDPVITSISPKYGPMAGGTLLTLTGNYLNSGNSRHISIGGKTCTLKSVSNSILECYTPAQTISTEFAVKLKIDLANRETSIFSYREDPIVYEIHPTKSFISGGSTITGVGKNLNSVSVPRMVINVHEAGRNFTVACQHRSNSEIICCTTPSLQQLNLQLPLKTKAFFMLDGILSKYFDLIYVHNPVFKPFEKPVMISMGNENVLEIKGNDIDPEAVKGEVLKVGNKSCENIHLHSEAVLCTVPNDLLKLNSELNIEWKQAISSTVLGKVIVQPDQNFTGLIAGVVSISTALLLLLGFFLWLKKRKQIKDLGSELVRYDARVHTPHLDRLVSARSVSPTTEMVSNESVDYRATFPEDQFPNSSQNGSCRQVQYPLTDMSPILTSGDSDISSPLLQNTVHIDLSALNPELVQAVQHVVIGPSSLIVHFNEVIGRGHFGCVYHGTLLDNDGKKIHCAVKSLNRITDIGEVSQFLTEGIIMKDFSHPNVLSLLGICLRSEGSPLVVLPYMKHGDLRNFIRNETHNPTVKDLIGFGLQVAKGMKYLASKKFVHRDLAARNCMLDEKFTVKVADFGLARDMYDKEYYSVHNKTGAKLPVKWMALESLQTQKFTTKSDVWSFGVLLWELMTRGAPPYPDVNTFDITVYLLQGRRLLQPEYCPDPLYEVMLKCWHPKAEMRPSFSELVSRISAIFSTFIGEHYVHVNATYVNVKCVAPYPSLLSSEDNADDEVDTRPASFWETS
UniProt P49760, whole entry: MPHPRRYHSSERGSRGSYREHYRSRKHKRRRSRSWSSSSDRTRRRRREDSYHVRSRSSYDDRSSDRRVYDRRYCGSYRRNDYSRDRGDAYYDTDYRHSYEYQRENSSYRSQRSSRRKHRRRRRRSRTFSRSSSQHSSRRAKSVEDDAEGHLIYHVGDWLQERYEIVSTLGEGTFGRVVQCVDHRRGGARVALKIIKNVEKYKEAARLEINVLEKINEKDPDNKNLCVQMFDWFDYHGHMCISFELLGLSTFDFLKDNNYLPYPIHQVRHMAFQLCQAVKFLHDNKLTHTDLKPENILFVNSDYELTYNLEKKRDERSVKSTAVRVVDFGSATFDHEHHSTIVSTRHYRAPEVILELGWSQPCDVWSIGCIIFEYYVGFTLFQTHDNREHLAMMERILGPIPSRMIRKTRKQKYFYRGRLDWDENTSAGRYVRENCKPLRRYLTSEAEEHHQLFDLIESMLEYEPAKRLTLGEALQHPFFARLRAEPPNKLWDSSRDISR

How the values were obtained:
Assay type in all cases: functional
[1] = biological target: Tyrosine-protein kinase Fyn (Homo sapiens, UniProt P06241)
[2] = biological target: High affinity nerve growth factor receptor (Homo sapiens, UniProt P04629);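 note: NTRK1 tested as one member of a kinome-wide profiling panel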
[3] = biological target: Hepatocyte growth factor receptor (Homo sapiens, UniProt P08581);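 note: kinase panel profiling across the kinome, with MET as the panel member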
[4] = biological target: Dual specificity protein kinase CLK2 (Homo sapiens, UniProt P49760)

## CCN1CCN(Cc2ccc(NC(=O)Nc3ccc(Oc4cc(NC)ncn4)cc3)cc2C(F)(F)F)CC1 [AST-487]
[1]
  Ki: active: 158 nM
[2]
  Ki: active: 1.58 µM
[3]
  Ki: inactive: > 2.51 µM
[4]
  Ki: active: 3.16 µM
